Results reported in patent US20260382628A1, “TEAD- AND KRAS G12D-INHIBITOR COMBINATIONS FOR TREATING CANCER” (published 2026).

Experiments:
Conditions in all cases: single agent, 6-day treatment
[1] = test system: HPAF-II cells; test: CellTiterGlo in vitro viability (proliferation), HPAF-II
Description: FIG. 1: In vitro viability of the KRAS G12D mutant pancreatic ductal adenocarcinoma cancer cell line HPAF-II was assessed using CellTiterGlo following 6-day treatment with (top) IAG933 combined with MRTX1133, (middle) TNO155 combined with MRTX1133 and (bottom) IAG933 combined with MRTX1133 and 500 nM TNO155. […] .
In vitro viability of the KRAS G12D mutant pancreatic ductal adenocarcinoma cancer cell line HPAF-II was assessed using CellTiterGlo following 6-day treatment with IAG933 combined with MRTX1133 (±TNO155). […] . Further combination with TNO155 provided a further combination benefit (FIG. 1).

[2] = test system: ASPC-1 cells; test: CellTiterGlo in vitro viability (proliferation), ASPC-1
Description: FIG. 2: In vitro viability of the KRAS G12D mutant pancreatic ductal adenocarcinoma cancer cell line ASPC-I was assessed using CellTiterGlo following 6-day treatment with (top) IAG933 combined with MRTX1133, (middle) TNO155 combined with MRTX1133 and (bottom) IAG933 combined with MRTX1133 and 500 nM TNO155. […] .
In vitro viability of the KRAS G12D mutant pancreatic ductal adenocarcinoma cancer cell line ASPC-1 was assessed using CellTiterGlo following 6-day treatment with IAG933 combined with MRTX1133 (±TNO155). […] . Further combination with TNO155 provided a further combination benefit (FIG. 2).

[3] = test system: SW1990 cells; test: CellTiterGlo in vitro viability (proliferation), SW1990
Description: FIG. 3: In vitro viability of the KRAS G12D mutant pancreatic ductal adenocarcinoma cancer cell line SW1990 was assessed using CellTiterGlo following 6-day treatment with (top) IAG933 combined with MRTX1133, (middle) TNO155 combined with MRTX1133 and (bottom) IAG933 combined with MRTX1133 and 500 nM TNO155. […] .
In vitro viability of the KRAS G12D mutant pancreatic ductal adenocarcinoma cancer cell line SW1990 was assessed using CellTiterGlo following 6-day treatment with IAG933 combined with MRTX1133 (±TNO155). […] . Further combination with TNO155 provided a further combination benefit (FIG. 3).

C#Cc1c(F)ccc2cc(O)cc(-c3ncc4c(N5C[C@H]6CC[C@@H](C5)N6)nc(OC[C@@]56CCCN5C[C@H](F)C6)nc4c3F)c12
inhibited: Proliferation of HPAF-II cells [1] | Proliferation of ASPC-1 cells [2] | Proliferation of SW1990 cells [3]
